Measurements from publication PMC9727064, “Performance assessment and economic analysis of a human Liver-Chip for predictive toxicology” (Communications Medicine, 2022).

System: human Liver-Chip (primary human hepatocytes)
Assay: Liver-Chip albumin production in top channel effluent (ELISA)
Conditions: expanded drug list, lowest multiplier causing a 50% reduction in albumin production

Structure (SMILES) | Albumin IC50 Donor 1 | Albumin IC50 Donor 2 (donor 2)
CC(C(=O)O)c1ccc2oc(-c3ccc(Cl)cc3)nc2c1 (stereo not drawn) [Benoxaprofen] | 8 unbound human Cmax multiplier | 20 unbound human Cmax multiplier
C=C[C@@H]1C[C@]1(NC(=O)[C@@H]1C[C@@H](Oc2ncc(OC)c3ccc(Cl)cc23)CN1C(=O)[C@@H](NC(=O)OC(C)(C)C)C(C)(C)C)C(=O)NS(=O)(=O)C1CC1 [Asunaprevir] | 190 unbound human Cmax multiplier | 
